From ChEMBL document CHEMBL3638487, “Inhibitors of beta-secretase” (2014)

Molecular target: Beta-secretase 1 (Homo sapiens, UniProt P56817)
Assay: BACE Assay: For each compound being tested, the BACE activity was monitored in a fluorescence quenching assay (FRET) using the ectodomain of BACE (aa 1-454) fused to a myc-his tag and secreted from HEK293/BACEect. cells into OptiMEM (Invitrogen) as enzyme source and a substrate peptide derived from the APP-Swedish mutation which possesses a Cy3-fluorophore at the N-terminus and a Cy5Q-quencher at

Row | Structure (SMILES) | IC50 [µM]
1 | CO[C@H]1CC[C@]2(CC1)Cc1ccc(Br)cc1[C@]21N=C(N)N(C)C1=O | 0.0159
2 | CO[C@H]1CC[C@]2(CC1)Cc1ccc(Br)cc1[C@@]21N=C(N)N(C)C1=O | 4.51
